These are literature values, as cited in patent publication US11173150B2, “Method for diagnosing, preventing, and treating neurological diseases” (United States Government As Represented By The Department …, priority 2010, dated 2021).

The conditions of series [1]: cited from earlier work.
In the next series the test system is clostridia. The note with it: Haralambie et al. 1983; cited from earlier work.

For the substance gentamicin, the “Absorption when given by the oral route” value in series [1] is given as “virtually unabsorbed”. Trimethoprim/sulfamethoxazole [TMX/Sul]: the “Absorption when given by the oral route” value in series [1] is recorded as “absorbed well”. Besides, in the series on clostridia, the “Effect on clostridia in the bowel flora of adults” value was “major overgrowth of clostridia”.
